Values quoted from earlier work, collected in patent US20170307631A1, “METHODS, SYSTEMS AND PRODUCTS FOR PREDICTING RESPONSE OF TUMOR CELLS TO A THERAPEUTIC AGENT AND TREATING A PATIENT ACCORDING TO THE PREDICTED RESPONSE” (Merrimack Pharmaceuticals, Inc., priority 2008, published 2017).

System: tumors known to express ErbB1 (EGFR)
Details: patients, even when tumors are known to express ErbB1 (EGFR); cited from earlier work

Substance: cetuximab
- average response rate for monotherapy: 15-20 % of patients
